scFv variants of Ab-91 (heavy chain) against a SARS-CoV-2 spike peptide

Source: Engelhart et al. 2022 (doi:10.1038/s41597-022-01779-4), MIT Lincoln Laboratory and A-Alpha Bio; data file from the FLAb repository.

Binding partner: SARS-CoV-2 spike HR2 peptide, sequence PDVDLGDISGINAS.

Each scFv is VL, a 15-residue (Gly4Ser)3 linker, VH, as in the parent Ab-91, and differs from it in the CDRs of the heavy chain only.
VL: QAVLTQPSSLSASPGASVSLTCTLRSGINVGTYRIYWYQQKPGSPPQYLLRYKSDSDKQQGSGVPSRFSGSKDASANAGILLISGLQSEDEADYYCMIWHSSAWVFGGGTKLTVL
VH: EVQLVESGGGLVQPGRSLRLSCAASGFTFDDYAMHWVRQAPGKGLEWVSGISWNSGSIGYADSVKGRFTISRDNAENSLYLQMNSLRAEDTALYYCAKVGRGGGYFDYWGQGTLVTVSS

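Library AAYL51 holds single substitutions and randomly drawn double and triple substitutions in the CDRs. Affinity was read by AlphaSeq, a pooled yeast mating assay with surface-displayed partners. Pairs that bind mate more often; barcode pairs of the diploids are counted by sequencing. Read counts were normalised to the haploid input and turned into Kd by a linear fit to BCL2-family pairs of known affinity, for each replicate. Mating was done three times.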

Variants are written as CDR1, CDR2 and CDR3 of the heavy chain (limits as in the source). Parent: GFTFDDYAMH, GISWNSGSIGYADSVK, VGRGGGYFDY.
The read-out is the apparent dissociation constant on a log10 scale (nM): the lower, the stronger.
A mean of the replicates is given; it leaves out those without a signal.
A pair that was not seen in any replicate is written "no signal"; this usually means weak binding, but a binder can also be missed.
For reference, the parent read 1.86 as the reference entry and 0.88 as a member of this library.
As a blank, each scFv also met three strains without target: over library AAYL51, 21% of these pairings were detected, typically at 4.54 and seldom below 3.26.

CDR-H1	CDR-H2	CDR-H3	mean, log10 nM	detected
GFTFDDYAMH	GISWNKGNIGYADSVK	VHRGGGYFDY	3.91	1 of 3
GFTFDDYAMH	GISWFSGEIGYADSVK	VGRGGGYFDW	no signal	0 of 3
GFTRDDYPMH	GISWNSGSIGYADRVK	VGRGGGYFDY	no signal	0 of 3
GFTFDDYAMH	GISWNSFSIGYADSVK	VGNGGGYFEY	3.78	3 of 3
GFTFDDYAMH	GISWESGSIGYATSVK	VGRGGHYFDY	3.65	2 of 3
GFTFDDYAMH	GESWNSGSIGYADRVK	VGRGGPYFDY	5.06	2 of 3
GFTFDDYAMH	GISANSGSIGYADSVK	AGRGGGGFDY	no signal	0 of 3
GFTFDVYAMH	GISWNSGSIGYADNVK	WGRGGGYFDY	no signal	0 of 3
KFTFDDYAMH	GISWNSGSIGYADSVK	VGPGGGYFDY	4.22	2 of 3
GFTKDDYAMH	GISWNDGSIGYADSVK	VGRGGGYFDC	5.09	3 of 3
GFTFDDYAMH	GISWNSGSIGHAYSVK	VGRRGGYFDY	4.69	1 of 3
GFTFHDVAMH	GISWNSGSIGYADSVK	VGRGGGYFDY	0.63	3 of 3
GFFFDDYAMH	GISWNSGSIGYADSVK	VGRGGCYFFY	1.08	3 of 3
GFYFDDYAMH	GISWNSGSIGYASSVK	VFRGGGYFDY	no signal	0 of 3
GFTFDDYANH	GISWNSGSIGHADSVK	VWRGGGYFDY	no signal	0 of 3
GFTFDDYKMH	GIAWNSGIIGYADSVK	VGRGGGYFDY	5.11	3 of 3
GFTFDDYAMH	GTSRNSGSIGYADIVK	VGRGGGYFDY	5.31	2 of 3
DFTFDDYAMH	GISWNSGSIGYADSVC	VGRGGGYQDY	no signal	0 of 3
GFTFDDYAMH	GKSVNSGSIGYADSMK	VGRGGGYFDY	no signal	0 of 3
NFTFDDYAMH	GISWNSGSIGYADFVK	VGRGFGYFDY	4.74	1 of 3
GFTFDDYAMN	GISWNSGSIGYADSVK	VGRCGGGFDY	5.74	3 of 3
GFTFDDYAMH	FISWNSGSRGYADSVQ	VGRGGGYFDY	no signal	0 of 3
GFTDDSYKMH	GISWNSGSIGYADSVK	VGRGGGYFDY	4.31	2 of 3
GFTFDDYATH	GISWNVGSIGYADSVP	VGRGGGYFDY	5.23	1 of 3
GFTFCDYAMH	GISWNMGSIGYADSVK	VGRGGGYFDY	6.18	2 of 3
AFTFDDYAME	GIKWNSGSIGYADSVK	VGRGGGYFDY	2.56	1 of 3
GFTFDDYAMY	GIGWNSGSIGKADSVK	VGRGGGYFDY	4.18	1 of 3
GFIFDDYAMH	GISWNSGSIGYAQSVK	VGRGGGYFEY	5.26	3 of 3
YFTFLDYAMH	GISWNSGSTGYADSVK	VGRGGGYFDY	no signal	0 of 3
GFTFDDYAMH	GQSWNQGSIGYADSVK	DGRGGGYFDY	no signal	0 of 3
GFTFCDYAMH	GISWNSGSIEYATSVK	VGRGGGYFDY	2.43	3 of 3
GFTFHDYAMH	GISWNKGSIGYADSVK	VGRGGGYFRY	no signal	0 of 3
AFTFDDYAMH	GISWNSGKIGYADSVK	VGRGGGYFDN	no signal	0 of 3
GFTFDDYAMH	GISWNSGSIGYADSQK	HGRSGGYFDY	no signal	0 of 3
GRTFMDYAMH	LISWNSGSIGYADSVK	VGRGGGYFDY	5.65	2 of 3
GVTFDDYAMH	GISWNSGSIGYVDSVK	FGRGGGYFDY	4.30	1 of 3
GFTFCDYAMH	GISWNSGSIGYADSVN	VGRGGTYFDY	4.85	1 of 3
GFLFDDYAMH	GISWNDGSIGYADSVK	VGRGGGQFDY	4.34	1 of 3
GFTFDDYAMH	SISWNSGSIGYQVSVK	VGRGGGYFDY	no signal	0 of 3
HFTFDDYAMH	GISWLSGSIGQADSVK	VGRGGGYFDY	no signal	0 of 3
GFTFDDYAMH	GISWNSGSIGYADSVQ	VRRGGGYFDY	4.68	2 of 3
GFTFDKYAMH	GISWNSGSIGYADSVW	VGRLGGYFDY	1.62	3 of 3
GFTFDDYAMH	GISWNSGSYGYADSVK	VGRGGGYFDR	1.28	3 of 3
GFTFDDYAMH	GISWNSGSIGYADSVE	VGRAGGYFDL	5.23	1 of 3
KFTFDDYAMH	GISWNSGSIGYADQVK	VGRGGGYFDY	2.69	1 of 3
GFTEDDYAMH	GISWNSGSIGYAFSVK	VERGGGYFDY	3.12	1 of 3
GFTFDDYAMH	GISWNSGSIWYADNVK	VGRYGGYFDY	no signal	0 of 3
GFTCDDYAMH	GISWNSGSIGYADSVY	VGRGGPYFDY	no signal	0 of 3

Picked from the list: the 4 lowest averages where every replicate gave a value.

CDR-H1,CDR-H2,CDR-H3,"mean, log10 nM",detected
GFTFHDVAMH,GISWNSGSIGYADSVK,VGRGGGYFDY,0.63,3 of 3
GFFFDDYAMH,GISWNSGSIGYADSVK,VGRGGCYFFY,1.08,3 of 3
GFTFDDYAMH,GISWNSGSYGYADSVK,VGRGGGYFDR,1.28,3 of 3
GFTFDKYAMH,GISWNSGSIGYADSVW,VGRLGGYFDY,1.62,3 of 3